Experimental data from patent US10508086B2 (CANCER RESEARCH TECHNOLOGY LIMITED, priority 2014, dated 2019).

Amino acid sequences for entries named in this document (tags omitted).
UniProt Q86W56, whole entry: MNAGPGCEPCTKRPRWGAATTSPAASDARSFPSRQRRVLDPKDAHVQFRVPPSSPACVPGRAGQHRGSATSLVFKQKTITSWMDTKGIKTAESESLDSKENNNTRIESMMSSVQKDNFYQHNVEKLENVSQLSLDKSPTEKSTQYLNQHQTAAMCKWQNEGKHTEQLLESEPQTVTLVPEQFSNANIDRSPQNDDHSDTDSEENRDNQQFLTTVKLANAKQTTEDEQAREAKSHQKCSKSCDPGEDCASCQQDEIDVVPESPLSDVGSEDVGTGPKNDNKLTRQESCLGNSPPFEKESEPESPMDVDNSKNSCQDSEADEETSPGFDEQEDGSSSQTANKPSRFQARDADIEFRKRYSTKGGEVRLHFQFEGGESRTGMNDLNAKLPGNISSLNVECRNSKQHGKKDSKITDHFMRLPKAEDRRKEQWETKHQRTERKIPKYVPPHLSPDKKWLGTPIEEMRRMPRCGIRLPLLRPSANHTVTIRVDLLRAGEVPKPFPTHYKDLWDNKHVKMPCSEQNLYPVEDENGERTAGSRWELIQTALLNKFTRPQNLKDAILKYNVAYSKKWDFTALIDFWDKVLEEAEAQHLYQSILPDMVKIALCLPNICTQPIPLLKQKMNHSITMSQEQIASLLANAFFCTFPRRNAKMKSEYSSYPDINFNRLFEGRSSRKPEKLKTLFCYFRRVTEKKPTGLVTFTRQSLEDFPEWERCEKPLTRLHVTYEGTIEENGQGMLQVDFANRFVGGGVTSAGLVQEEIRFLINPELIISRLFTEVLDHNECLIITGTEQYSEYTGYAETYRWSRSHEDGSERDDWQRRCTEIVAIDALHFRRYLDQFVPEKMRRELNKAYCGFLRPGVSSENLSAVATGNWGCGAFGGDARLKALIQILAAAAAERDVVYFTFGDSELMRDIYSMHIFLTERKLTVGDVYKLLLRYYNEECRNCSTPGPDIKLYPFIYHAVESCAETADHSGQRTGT

Target: PARG in HeLa cell line (Homo sapiens (Human), UniProt Q86W56)
Assay: PARG cell assay (nuclear PAR chains after MMS, immunofluorescence)
Details: read-out: PARG Cell IC50 Geomean; HeLa cells, MMS 50 μg/mL
Method: This method is based on the detection of endogenous levels of poly (ADP) ribose chains present in the nucleus of HeLa cell line using indirect immunofluorescence. MMS stimulation increases PAR chains for up to 25 mins. After that point, PARG is active and breaks down the PAR chains, until by one hour after stimulation no PAR chains are detectable. Inhibition of PARG maintains PAR chains.
Briefly, following compound treatment and treatment with the DNA damaging agent methylmethanesulfonate (MMS), the cell monolayer is fixed, then permeabilised and incubated with a mouse monoclonal antibody raised against multimers of poly(ADP) ribose. After an overnight incubation, excess antibody is removed by washing and an Alexafluor 488-linked secondary antibody which recognises the mouse monoclonal is added together with a nuclear stain (Hoechst 33342). Images of the cells are then captured and analysed on a High Content Screening platform and the total intensity of the nuclear fluorescent signal at […] is quantified.
HeLa cells, seeded in 384-well plates, at 4000/well in 30 μL RPMI 1640 media, supplemented with 10% FBS and 2 mM Glutamax, were incubated overnight at 37° C., 5% CO2.
The following day, cells were dosed in quadruplicate with compound (10 point dose response) and incubated for 1 h at 37° C., 5% CO2. […]

IC50: 508 nM
Structure (SMILES): Cc1nnc(-n2c(=O)n(Cc3cn[nH]c3)c3ccc(S(=O)(=O)NC4(C)CC4)cc32)s1
